Data taken from patent US8563257B2, “Sensitive and rapid methods of using chimeric receptors to identify autoimmune disease and assess disease severity” (Diagnostic Hybrids, Inc., priority 2000, dated 2013).

What was measured:
[1] = biological target: T1, chimeric hTSH/rLH-R receptor (RMc4) (Homo sapiens, UniProt P16473, D276T/DEL293-355/DEL363-369/E727D/H271S/INS291KEQNFSFSIFENFSKQCESTVRKADNETLYSA/INS360LSGW/K262T/K287S/K290P/L265S/L267E/L270T/Q289L/Q359N/R274V/S266K/S268K/S278T/T273L); assay: CHO-RMc4luc luciferase assay, hormones incubated three hours; assay type: cell-based, human/rat; settings: for RLU, Hormones / Ratio of Signal/Negative: FSH 364 mIU/ml, LH 455 mIU/ml, hCG 29.5 IU/ml, hTSH 76 μIU/ml
T1 construct: contains a total of 2,324 base pairs and encodes 730 amino acids; expressed in transfected cells; host or cells: CHO-K1 (ATCC CCL-61), stably transfected with pMc4-GPH/Luciferase
Procedure: The response of the CHO-RMc4luc, RD-RMc4luc and CHO-Rluc cell lines to negative and positive TSI sera was then compared. The cells were incubated with TSI negative and positive sera for three hours. Cells were then lysed and luciferase activity was measured by a Veritas Microplat Luminometer. […] FIGS. 10A, 10B, 10C, 10D and 10E. […] FIGS. 10B and 10D, respectively. CHO-RMc4luc cells were about 1.3 to 3.5 more sensitive than RD-RMc4luc cells. FIG. 10E. In addition, the CHO-RMc4luc had lower levels of induced luciferase activity than CHO-Rluc when tested with TSI negative serum leading to lower background and increased signal/negative (S/N) ratios. FIG. 10A. […] FIG. 10A and FIG. 10C, respectively. […] FIG. 10E.
(§1) The CHO-RMc4luc cell line was also compared to the CHO-Rluc cell line for TSH sensitivity. The S/N ratio was derived from the luciferase assay using CHO-Rluc, CHO-RMc4luc and RD-RMc4luc cell lines induced with recombinant human TSH. Recombinant human TSH at various concentrations was incubated with CHO-RMc4luc or CHO-Rluc cell lines for three hours. After incubation, the luciferase assays were performed. […] FIG. 12.
(§2) CHO-RMc4luc and CHO-Rluc cell lines were also tested for their specificity using other anterior pituitary hormones including human luteinizing hormone, LH,) human follicle stimulating hormone (hFSH) and human chorionic gonadotropin (hCG), all of which share a common alpha subunit. […]

[2] = biological target: T2, wild type human TSH receptor (Homo sapiens, UniProt P16473); assay: CHO-Rluc luciferase assay, hormones incubated three hours; assay type: cell-based; settings: for RLU, Hormones / Ratio of Signal/Negative: FSH 364 mIU/ml, LH 455 mIU/ml, hCG 29.5 IU/ml, hTSH 76 μIU/ml
T2 construct: expressed in transfected cells; host or cells: CHO-Rluc (from W-25 CHO-R cells)
Procedure: as §1, §2

[3] = biological target: T3, human TSH receptor (Homo sapiens, UniProt P16473); assay: CHO-Rluc luciferase assay, method of Evans et al. (charcoal-stripped calf serum); assay type: cell-based; settings: zero TSH standard subtracted
T3 construct: expressed in transfected cells; host or cells: CHO-Rluc (from W-25 CHO-R cells)
Procedure: In these experiments, the performance of CHO-Rluc cells using the method described by Evans et al. (Evans et al., J. Clin. Endocrinol. Metabol., 84:374 (1999)) was evaluated. The media from the cell monolayers in the 24 wells used in the 96-well microtiter plates prepared as described in Example 2 were aspirated and replaced with 100 μl Ham's F-12 medium containing 10% charcoal-stripped calf serum (Sigma), and incubated overnight at 35-37° C., in a humidified atmosphere containing 5% CO2.
Then, 10 μl of bovine TSH standards diluted to a range of concentrations (e.g., 0 10, 100, and 1000 μIU) and Graves' IgG (dissolved to a concentration of 10 mg protein/ml in charcoal-stripped calf serum) were added to respective quadruplicate wells. The suspension in each well was mixed, and the plates were incubated for 4 hours at 35-37° C., in a humidified atmosphere containing 5% CO2. The medium was then aspirated from each of the wells, and 150 μl of lysis buffer (Promega, as described above) were added to each well. The plates were then incubated at room temperature for 30 minutes to allow lysis of the cells in the wells. […] The luminometer read out provided results as relative light units per second (RLU/sec). The negative or “zero” TSH standard value was subtracted from each of the readings. […]

[4] = biological target: T3, human TSH receptor; assay: CHO-Rluc luciferase assay with Starvation and Stimulation Media (with or without PEG); assay type: cell-based
Procedure: In these experiments, CHO-Rluc cells prepared as described in Example 1 were used in assays for diagnosis of Graves' disease. To prepare 24 monolayers for testing, 24 wells in a 96-well microtiter plate were first treated by adding 50-100 μl 0.1% gelatin solution (Sigma) to enhance attachment of the cells to the bottom of the 24 wells chosen for the test. Following incubation for approximately 1 minute at room temperature, the gelatin solution was removed from each of the wells by aspiration. It was noted that the gelatin can remain on the wells for longer than one minute. The gelatin serves to coat the wells with collagen, so that the cells attach more quickly to the wells and reach confluence more rapidly. However, cells can be planted and grown to confluence without gelatin and still perform well.
A freezer vial of CHO-Rluc cells produced as described in Example 1 was rapidly thawed in a 37° C. water bath to provide approximately 0.4 ml cell suspension, which was well-mixed using a pipette. The cells were then added to 2.5 ml GM (also referred to as “Planting Medium”), thoroughly mixed by vortexing for 1-2 seconds, and 100 μl aliquots of the cell suspension were added to each well, and the plates were covered. It is preferable to produce an even distribution of cells in each well. Thus, to avoid uneven cell distributions, the microtiter plate should be placed in a vibration-free hood for cell planting and attachment of cells to the walls of the microtiter plate. The planted cells were then incubated at 35-37° C., in a humidified atmosphere, containing 5% CO2, for approximately 20-24 hours, to allow the cells to form a nearly or completely confluent monolayer.
The GM was then aspirated from each well as completely as possible, being careful not to disturb the monolayers (i.e., confluent monolayers remain in the wells).
Then, in an alternative method to that previously described, 10 μl of patient, control, and TSH standard solutions were added to the appropriate wells. The TSH standards and IgG samples were diluted with diluent (i.e., HBSS-NaCl+222 mM sucrose). The TSH standards were tested at concentrations of 0, 10, 100, 1000, and 5000 μIU. Patient samples were diluted to a concentration of 10 mg protein/ml for use in the assay. As the Stimulation Medium is viscous, thorough mixing of the suspensions was important. Adequacy of the mixing was ascertained by microscopic examination of the monolayers. The plates were incubated for 4 hours at 35-37° C. in a 5% CO2, humidified incubator. The medium was carefully aspirated from each well and 150 μl lysis solution (Promega) was added to each well. The lysis solution contained 25 mM Tris-phosphate, pH 7.8, 2 mM diaminocyclohexane tetraacetic acid (CDTA), 2 mM dithiothreitol (DTT), 10% glycerol, and 1% Triton X-100. The plates were then incubated for 30 minutes at room temperature, to allow the monolayers to lyse. Following lysis, each well was scraped and stirred using a pipet tip. […] The tubes were vortexed for 1-2 seconds and the RLU/sec values determined, using settings of 5 seconds delay and 10 second read. To obtain average net values, the average of the “0 TSH” (i.e., the negative control) samples was subtracted from all test average values.
In these experiments, once the cell monolayers contained within the wells of 96-well microtiter plates (as described above), reached confluence, the Growth Medium was removed by aspiration and 100 μl of Starvation Medium were added to each monolayer. The plates were then incubated for 16-24 hours at 35-37° C., in a humidified atmosphere containing 5% CO2, to starve or condition the cells. The Starvation Medium was then aspirated from the wells.
To perform the assay, 10 μl of the patient specimen IgG, bTSH standards, and IgG controls (normal and Graves' disease sera), were added to the monolayers in triplicate. The suspensions were mixed within each well, and incubated under the above conditions for 4 hours. […]

LH: human luteinizing hormone, anterior pituitary hormone sharing the common alpha subunit
cross activity with anterior pituitary hormones [1]: Neither cell line showed any cross activity
RLU, Hormones [1]: 1561 RLU
Ratio of Signal/Negative [1]: 0.9
cross activity with anterior pituitary hormones [2]: Neither cell line showed any cross activity
RLU, Hormones [2]: 835 RLU
Ratio of Signal/Negative [2]: 0.8

FSH: human follicle stimulating hormone, anterior pituitary hormone sharing the common alpha subunit
cross activity with anterior pituitary hormones [1]: Neither cell line showed any cross activity
RLU, Hormones [1]: 1019 RLU
Ratio of Signal/Negative [1]: 0.6
cross activity with anterior pituitary hormones [2]: Neither cell line showed any cross activity
RLU, Hormones [2]: 728 RLU
Ratio of Signal/Negative [2]: 0.7

bTSH: bovine thyroid stimulating hormone standards
net RLU/sec ([3]; TSH 10 μIU/μl): 4031 RLU/sec
net RLU/sec ([3]; TSH 1000 μIU): 222,801 RLU/sec
net RLU/sec ([4]; Starvation Medium HBSS-NaCl + 222 mM sucrose, 10 μIU TSH/ml): 2,188 RLU/sec
net RLU/sec ([4]; Starvation Medium HBSS-NaCl + 222 mM sucrose, 1000 μIU TSH/ml): 142,666 RLU/sec
net RLU/sec ([4]; Starvation Medium standard HBSS with 20 mM sucrose, 10 μIU TSH/ml): 14,390 RLU/sec
net RLU/sec ([4]; Starvation Medium standard HBSS with 20 mM sucrose, 1000 μIU TSH/ml): 156,548 RLU/sec
RLU/sec ([4]; bTSH 10 μIU TSH · ml): 5,921 RLU/sec
RLU/sec ([4]; bTSH 25 μIU TSH · ml): 20,227 RLU/sec
RLU/sec ([4]; bTSH 50 μIU TSH · ml): 34,426 RLU/sec
RLU/sec ([4]; bTSH 75 μIU TSH · ml): 54,396 RLU/sec
RLU/sec ([4]; bTSH 100 μIU TSH · ml): 62,206 RLU/sec
correlation coefficient (r) of the response to bTSH ([4]; bTSH dilutions 0-100 μIU): 0.9925
net RLU/sec ([4]; pre-incubation medium CHO Char (10% charcoal-stripped calf serum), 10 μIU TSH/ml): 5,602 RLU/sec
net RLU/sec ([4]; pre-incubation medium CHO Char (10% charcoal-stripped calf serum), 1000 μIU TSH/ml): 229,492 RLU/sec
net RLU/sec ([4]; pre-incubation medium CHO GM (10% FBS), 10 μIU TSH/ml): 782 RLU/sec
net RLU/sec ([4]; pre-incubation medium CHO GM (10% FBS), 1000 μIU TSH/ml): 265,195 RLU/sec
net RLU/sec ([4]; starvation standard HBSS, Stimulation Medium HBSS-NaCl + 111 mM sucrose + 6% PEG-8000, 10 μIU TSH/ml): 5,980 RLU/sec
net RLU/sec ([4]; starvation standard HBSS, Stimulation Medium HBSS-NaCl + 111 mM sucrose + 6% PEG-8000, 1000 μIU TSH/ml): 207,831 RLU/sec
net RLU/sec ([4]; starvation standard HBSS, Stimulation Medium HBSS-NaCl + 222 mM sucrose, no PEG, 10 μIU TSH/ml): 1,336 RLU/sec
net RLU/sec ([4]; starvation standard HBSS, Stimulation Medium HBSS-NaCl + 222 mM sucrose, no PEG, 1000 μIU TSH/ml): 82,466 RLU/sec
net RLU/sec ([4]; starvation with the Stimulation Medium, 10 μIU TSH/ml): −1,148 RLU/sec
net RLU/sec ([4]; starvation with the Stimulation Medium, 1000 μIU TSH/ml): 47,478 RLU/sec
